US6875582B1 (priority 1999, dated 2005)

System: E. coli ATCC 11775
Settings: EMS 2% w/v 30 min, NQO 400 μg/ml 60 min, MNNG 10 μg/ml 10 min, average of two experiments

For `CN(N=O)C(=N)N[N+](=O)[O-]`, the “Mutant Frequencies (NA^R phenotype)” value was 1.1 × 10^−8 and the “Survival (%)” value (vs non-treated control = 100%) was 43%.
